Km data for one substance are collected here from paper PMC6844113.

For the data set, the system named is Nc1ncnc2c1ncn2[C@@H]1O[C@H](COP(=O)(O)OP(=O)(O)OP(=O)(O)O)[C@@H](O)[C@H]1O. Kind of data set: purified protein. The note with it: Mg2+ ATP binding to gyrase subunit B.

Turning to “E. coli DNA gyrase subunit B (Escherichia coli K-12)”, the Km – broadly, the concentration of substrate that gives half-maximal velocity – was found to be 330 ± 140 µM.
